Target: T1, human recombinant renin (Homo sapiens, UniProt P00797)
T1 construct: purchased Cayman Chemical; host or cells: HEK cells
Experiment: Renin inhibitory activity assay (fluorometric)
Type: biochemical
Settings: Table 1; peptide concentration not given
Description: Renin inhibitory activity assays were carried out on a Shimadzu RF 1501 spectrofluorometer equipped with thermostated cell holder according to the method of Wang, Chung, Holzman, & Krafft (1993) with some modifications (FIG. 5 and Table 1). The following instrumental parameters were used: excitation wavelength, 340 nm; emission wavelength, 490 nm; excitation and emission bandwidth, 10 nm. A standard 2 mL, 1 cm pathlength cuvettes containing 1 mL of buffer (or 1 mL varied peptide concentrations) and 1 mL of 2.5 μM substrate, was equilibrated at 37° C. for 5 min to gain thermal equilibrium. A 15 μL of renin (0.4 μg renin) was then added to the cuvette to initiate the reaction. The time dependent increase of fluorescence intensity was monitored for 5 min. The initial reaction velocity, expressed in arbitrary fluorescence units per minute (FU/min), was calculated by least-squares analysis of the initial phase of the reaction. The renin inhibiting activity of the peptide fractions and the individual peptides within are described in Table 1.
Renin inhibiting assay was modified from the fluorometric assay developed for renin activity measurement (FIG. 5). […] The Michaelis-Menten constant (Km) in our study is 3.8 μM for human recombinant renin in the absence of peptide fractions. This value is close to the reported KM of 3.6 μM using the same source of renin and substrate under similar assay conditions (Holzman et al 1991). However, Km of human recombinant renin was also reported to be 1.62 μM (Toshihisa et al., 1992), or 1.25 μM in purified human renal renin acting on pure human plasma angiotensingen at pH 5.7 (Cumin et al., 1987), 1.54 μM at pH 6.5 (Slater and Strout 1981). The Km value for the reaction between renin and substrate also depends on pH, ionic strength, the medium and the assay procedure used (Poulsen et al., 1976). The Michaelis-Menten constants were increased to 6.3 and 6.1 μM, respectively in the presence of peptide fractions of T4 and T5, indicating decreased binding ability between renin and substrate because of the presence of competitive peptide inhibitors.

Row | RENIN INHIBITION % | Substance
1 | 49.11% | SEQ ID NO. 1: peptide identified within the bioactive fractions of yellow pea protein hydrolysate (IR; listed as Pisum sativum)
2 | 28.78% | SEQ ID NO. 2: peptide identified within the bioactive fractions of yellow pea protein hydrolysate (KF; listed as Pisum sativum)
3 | 37.15% | SEQ ID NO. 28: peptide identified within the bioactive fractions of yellow pea protein hydrolysate (LW; listed as Pisum sativum)
4 | 69.18% | SEQ ID NO. 27: peptide identified within the bioactive fractions of yellow pea protein hydrolysate (IW; listed as Pisum sativum)
5 | 25.36% | SEQ ID NO. 5: peptide identified within the bioactive fractions of yellow pea protein hydrolysate (NR; listed as Pisum sativum)
6 | 15.13% | SEQ ID NO. 8: peptide identified within the bioactive fractions of yellow pea protein hydrolysate (YR; listed as Pisum sativum)
7 | 22.36% | SEQ ID NO. 3: peptide identified within the bioactive fractions of yellow pea protein hydrolysate (EF; listed as Pisum sativum)
8 | 6.35% | SEQ ID NO. 10: peptide identified within the bioactive fractions of yellow pea protein hydrolysate (RF; listed as Pisum sativum)
9 | 8.64% | SEQ ID NO. 12: peptide identified within the bioactive fractions of yellow pea protein hydrolysate (FQ; listed as Pisum sativum)
10 | 8.92% | SEQ ID NO. 11: peptide identified within the bioactive fractions of yellow pea protein hydrolysate (FK; listed as Pisum sativum)
11 | 20.40% | SEQ ID NO. 9: peptide identified within the bioactive fractions of yellow pea protein hydrolysate (FT; listed as Pisum sativum)

Source: patent publication US8815806B2, “Yellow pea seed protein-derived peptides” (University of Manitoba, priority 2009, dated 2014)
